# Earlier results in US9682037B2, “Non-mucoadhesive film dosage forms” (APR APPLIED PHARMA RESEARCH S.A., priority 2006, dated 2017).
substance,measurement,setting,value
Buprenorphine HCl,AUC0-48,16 mg,AUC0-48 (hr · ng/ml) = 32.63 (CV = 25) (16.0 mg)
same,Cmax,16 mg,Cmax = 5.47 ng/ml (CV = 23) (16 mg)
same,buprenorphine level (below limit of quantitation),"1.0, 2.0 and 4.0 mg doses, after two hours, seven of eight subjects",below limit of quantitation (0.05 ng/ml) after
same,Linearity / dose proportionality of pharmacokinetics,result in words,Dose proportional pharmacokinetics for
